In patent publication US20140065615A1, “The KRAS Variant and Tumor Biology” (YALE UNIVERSITY, priority 2011, published 2014):

Test system: HT-29 (cell line without the allele)
Assay: MTT survival, Irinotecan with or without Cetuximab, HT-29
Type: cell-based
Details: non-KRAS variant cell lines; radiation as well as irinotecan chemotherapy
Experimental: Cells were plated, treated with agents 24 hours after plating, media was changed after a 24 hour exposure, and then survival was scored 48 hours later using the MTT assay.

Cetuximab: monoclonal antibody targeting epidermal growth factor receptor (anti-EGFR moAb)
cell death on addition of Cetuximab to cytotoxic therapy vs cytotoxic therapy alone: increased cell death
